# Literature values as cited in patent publication US9034928B2, “Methods for metabolic imaging” (IMAGNX, Inc., priority 2011, dated 2015).
# Details: statement without a test; cited from earlier work
substance,measurement,value
^13C succinate [reference compound],transport across biological membranes,poorly transported
